Values of other authors, collected in US20260306502A1, “MITOCHONDRIAL UNCOUPLERS FOR TREATMENT OF METABOLIC DISEASES AND CANCER” (Mito Biopharma, LLC, priority 2022, published 2026).

How the values were obtained:
[1] = test system: C57Bl6 mice; conditions: DNP, US EPA; cited from earlier work
[2] = test system: CD-1 mice; conditions: DNP, reportedly; cited from earlier work
[3] = concentration (in cells)/dosage (in vivo); cited from earlier work

O=[N+]([O-])c1ccc(O)c([N+](=O)[O-])c1 [DNP, 2,4-dinitrophenol]
LD50/MED ratio [1]: 30 | NOAEL/MED ratio [2]: less than 3 | ratio of concentration/dosage between toxicity and efficacy [3]: about 3
